Reference: US20060002891A1, “Cytomodulating conjugates of members of specific binding pairs” (SangStat Medical Corporation, priority 1991, published 2006)

Assays:
[1] = system: C57BL/6 heterotopic cardiac allografts in BALB/c recipients; assay: Heterotopic cardiac allograft survival; type: in vivo, mouse; details: for graft survival, immunized mice: BALB/c immunized with KLH-FITC, daily 50 μg/Kg for 30 days
Method: Mice, immunizations, injections, and cardiac allograft: Groups of 4 BALB/c or C57BL/6 male mice 9-10 weeks of age (Simonsen Laboratories, Gilroy, Calif.) were used throughout the experiments. BALB/c mice were primed and boosted with injections of 20 μg KLH-FITC prepared in CFA or IFA (Complete and Incomplete Freund's Adjuvants respectively; Sigma Chemical Co.) delivered sub-cutaneously in the right hind footpad. At each time point indicated, the mice were anesthetized with 65% CO2 and bled via the retroorbital plexus. Serum was separated from the sample and either tested in ELISA or passed over a FITC bound column prepared according to the manufacturers instructions (Pharmalink kit, Pierce). Anti-FITC antibodies were eluted from the column with pH 4.0 Tris-Hcl and extensively dialyzed against PBS pH 7.4.
C57BL/6 mice were heavily anesthetized with Metofane (methoxyflurane, Pittmann-Moore, Mundelein, Ill.), their hearts removed and the organ flushed with heparinised Ringers lactate. Heterotopic cardiac transplant to BALB/c recipients was performed according to the method of Ono and Lindsey (1969) J. Thorac. Cardiovasc. Surg. 7:225-229. Treatment with 50 μg/Kg/day (1 μg/mouse) IL2-FITC conjugate or IL2 alone was delivered via the tail veins in 200 μl PBS. Graft survival was evaluated daily by direct palpation. Suspected rejection was confirmed by opening the peritoneal cavity of the recipient and direct observation of the graft. All animals were treated and maintained in accordance with public health service guidelines.

[2] = system: C57BL6 stimulator to BALB/c responder mixed lymphocyte reactions; details: for effect on MLR at high concentrations: 10 μg/ml, 3H-thymidine incorporation day 5; for proliferation in MLR at lower doses: compared with cultures with no additive

Substance | increase in graft survival versus non-immunized/untreated controls ([1]; 38.7±7.1 days versus day 9±0.7) | graft survival, immunized mice [1] | day of graft rejection, nonimmunized mice ([1]; nonimmunized BALB/c, treated) | toxicity to proliferating T-cells [2] | effect on MLR at high concentrations [2] | proliferation in MLR at lower doses [2]
IL2-FITC: human IL2 coupled to fluorescein 5-isothiocyanate, mean F:P ratio of 1 | > 4 fold | 38.7 ± 7.1 days | 9.4 ± 1.1 days | not toxic | accelerate the MLR | proliferate equally as well or better
IL2: human IL2 (PeproTech), unlabeled cytokine control [reference compound] |  | 10 ± 1.4 days |  |  | accelerate the MLR | proliferate equally as well or better
